Reference: US10539557B2
Some compounds may have been tested in ways that are not shown here.

System: Antibody to AH-7921 and nor-AH-7921 (raised against Immunogen 2 of Example 8)
Test: Competitive immunoassay (ELISA) with Tracer-1 (hapten-A conjugated to HRP), absorbance at 450 nm
Settings: for IC50 = standard concentration which produces 50% inhibition of maximal signal: polyclonal antibody raised against Immunogen 2, Tracer-1; for % CR (cross-reactivity): relative to AH-7921 = 100%, calculated from IC50
Method: Pre-immunization blood samples are collected from young adult, female, Texel sheep. Texel sheep is a breed of domestic sheep originally from the island of Texel in the Netherlands. In order to generate polyclonal antisera, 2 mg of Immunogen-2 is prepared in PBS, mixed at a ratio of 50% immunogen in PBS to 50% Freund's Complete adjuvant (Sigma, Product Number F5881) and emulsified by repeatedly passing the mixture through a tip on the end of a 1 mL syringe, until it reaches the required semi-solid consistency. 1 mL of the emulsified mixture is injected intramuscularly into each host animal (sheep) as the primary immunisation dose. Further injections (boosts) are prepared (1 mg of immunogen is prepared in PBS and mixed at a ratio of 50% Immunogen in PBS/50% Freunds Incomplete adjuvant, Sigma, Product Number—F5506). Boost injections are delivered intramuscularly at monthly intervals, 1 mL per animal. Serum is sampled monthly by collection of whole blood from the jugular vein for evaluation of the antibody titre. The degree of antibody purification required depends on the intended application. (For many purposes, there is no requirement for purification of the serum, however, in other cases, such as where the antibody is to be immobilised on a solid support, purification steps (such as caprylic acid/ammonium sulphate precipitation) can be taken to remove undesired material and eliminate non-specific binding.)
A detecting agent (hapten-A conjugated to HRP (Tracer-1)) is added to a sample containing the target analyte and the raised antibodies, promoting competition between the detecting agent and analyte for binding to the antibodies. The antibodies were contacted with a polystyrene solid support (e.g. dilution of antibodies in coating buffer and incubation at 37° C. for 2 hours to allow antibody binding to surface). The antibodies can be polyclonal or monoclonal using standard techniques, but the current invention makes use of polyclonal antibodies. The signal emitted in the immunoassay is proportionate to the amount of detecting agent bound to the antibodies which in turn is inversely proportionate to the analyte concentration. The signal can be detected or quantified by comparison with a calibrator which comprises known levels of target analyte.
Antibodies were diluted in coating buffer and incubation at 37° C. for 2 hours to allow antibody binding to surface. The plate was washed. Detecting agent (hapten-A conjugated to HRP (Tracer-1)) was added to a sample containing the target analyte. The plate was washed. 125 μl of one-shot substrate (Thermo Fisher Product No. TMB005/001/UL—containing luminol) was added to each well and tapped gently. The plate was incubated at room temperature for 20 minutes in the dark. The reaction was stopped by addition of 125 μl of 0.2M Sulphuric acid to each well. The absorbance was measured at 450 nm using an ELISA plate reader (e.g. Biotek Elx800)
The cross-reactivity (CR) was calculated using the equation below. All calculations were based upon binding and displacement at the 50% of maximum OD (optical density) binding point. The maximum OD is the signal generated using tracer alone and 50% displacement (inhibition) corresponds to the IC50.
[formula] The Table below discloses the Antibody binding characteristics of Antibody to AH-7921 and nor-AH-7921 (raised against Immunogen 2 of Example 8); and Tracer-1 of Example 9.

CN(C)C1(CNC(=O)c2ccc(Cl)c(Cl)c2)CCCCC1
% B/B0 (0.156 ng/ml standard (L2)): 31%
% B/B0 (0.313 ng/ml standard (L3)): 18%
% B/B0 (0.625 ng/ml standard (L4)): 10%
% B/B0 (1.250 ng/ml standard (L5)): 5%
% B/B0 (2.500 ng/ml standard (L6)): 3%
% B/B0 (5.000 ng/ml standard (L7)): 2%
% B/B0 (10.000 ng/ml standard (L8)): 1%
IC50 = standard concentration which produces 50% inhibition of maximal signal: 0.081 ng/mL
% CR (cross-reactivity): 100.0%

CNC1(CNC(=O)c2ccc(Cl)c(Cl)c2)CCCCC1
% B/B0 (0.156 ng/ml standard (L2)): 36%
% B/B0 (0.313 ng/ml standard (L3)): 24%
% B/B0 (0.625 ng/ml standard (L4)): 15%
% B/B0 (1.250 ng/ml standard (L5)): 10%
% B/B0 (2.500 ng/ml standard (L6)): 6%
% B/B0 (5.000 ng/ml standard (L7)): 4%
% B/B0 (10.000 ng/ml standard (L8)): 3%
IC50 = standard concentration which produces 50% inhibition of maximal signal: 0.086 ng/mL
% CR (cross-reactivity): 94.186%
